The source made the active and inactive calls. The rule behind the calls is not given here.
Key:
[1] = biological target: Delta-type opioid receptor (Rattus norvegicus) (UniProt P33533); assay: Agonist activity at rat delta-opioid receptor expressed in C6 cell membrane assessed as [35S]GTPgammaS binding for 1 hr by liquid scintillation counting analysis relative to 10 uM DPDPE; format: functional, cell membranes
[2] = biological target: Kappa-type opioid receptor (Homo sapiens, UniProt P41145); assay: Agonist activity at human kappa-opioid receptor expressed in CHO cell membrane assessed as [35S]GTPgammaS binding for 1 hr by liquid scintillation counting analysis relative to 10 uM U69593; format: functional, cell membranes
Rattus norvegicus = species on record: Rattus norvegicus; assay: Selectivity ratio, ratio of Ki for rat delta-opioid receptor to Ki for rat mu-opioid receptor
Method in brief: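 Competition for 0.2 nM [3H]diprenorphine in membranes (20 µg protein) from C6 cells with rat MOR or DOR, or CHO cells with human KOR. 50 mM Tris-HCl pH 7.4, 1 h at room temperature, then GF/C filtration, five buffer washes, scintillation counting. Nonspecific binding set with 10 µM naloxone. Ki from logistic fit. Mean ± S.E.M., ≥3 assays in duplicate. DOR/MOR ratio taken from the Ki values.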

Sequences of proteins named here, by UniProt entry; tags and fusion partners are left off. A change or cut given only in a name is not applied to a line headed by its entry.
UniProt P33533, whole entry: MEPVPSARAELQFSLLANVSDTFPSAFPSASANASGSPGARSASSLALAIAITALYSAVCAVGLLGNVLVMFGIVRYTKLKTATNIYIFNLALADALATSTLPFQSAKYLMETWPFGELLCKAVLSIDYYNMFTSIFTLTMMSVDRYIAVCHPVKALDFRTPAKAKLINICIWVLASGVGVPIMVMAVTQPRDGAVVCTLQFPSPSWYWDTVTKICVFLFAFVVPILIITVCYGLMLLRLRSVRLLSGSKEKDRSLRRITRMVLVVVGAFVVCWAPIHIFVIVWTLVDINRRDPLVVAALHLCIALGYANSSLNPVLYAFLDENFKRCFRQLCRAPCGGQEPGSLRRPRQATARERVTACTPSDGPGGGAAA
UniProt P41145: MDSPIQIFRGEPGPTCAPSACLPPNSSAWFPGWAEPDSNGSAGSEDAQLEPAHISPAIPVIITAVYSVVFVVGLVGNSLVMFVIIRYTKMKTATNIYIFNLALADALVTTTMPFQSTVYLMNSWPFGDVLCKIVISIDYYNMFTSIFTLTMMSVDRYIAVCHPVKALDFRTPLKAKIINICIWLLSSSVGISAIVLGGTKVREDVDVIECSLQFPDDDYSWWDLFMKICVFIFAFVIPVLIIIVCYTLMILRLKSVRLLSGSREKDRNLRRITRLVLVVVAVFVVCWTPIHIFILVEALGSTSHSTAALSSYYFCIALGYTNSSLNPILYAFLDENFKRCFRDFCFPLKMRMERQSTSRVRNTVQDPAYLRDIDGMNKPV

SMILES: Cc1cc(O)cc(C)c1C[C@H](N)C(=O)N[C@@H]1CCCc2ccc(Cc3ccc4ccccc4c3)cc21
- Activity [1]: inactive
- Activity [2]: inactive
- Ratio Ki (Rattus norvegicus): 140

SMILES: CC(=O)N1CC[C@@H](NC(=O)[C@@H](N)Cc2c(C)cc(O)cc2C)c2cc(CC3CCc4ccccc43)ccc21 (mixture of isomers)
- Activity [1]: inactive
- Ratio Ki (Rattus norvegicus): 28

SMILES: Cc1cc(O)cc(C)c1C[C@H](N)C(=O)N[C@@H]1CCNc2ccc(CC3CCc4ccccc43)cc21 (mixture of isomers)
- Activity [1]: inactive
- Ratio Ki (Rattus norvegicus): 136

SMILES: Cc1cc(O)cc(C)c1C[C@H](N)C(=O)N[C@@H]1CCNc2ccc(Cc3cccc4ccccc34)cc21
- Activity [2]: inactive
- Ratio Ki (Rattus norvegicus): 8

SMILES: Cc1cc(O)cc(C)c1C[C@H](N)C(=O)N[C@@H]1CCCc2ccc(Cc3ccccc3)cc21
- Activity [1]: inactive
- Activity [2]: inactive
- Ratio Ki (Rattus norvegicus): 89
